# Laboratory results from publication PMC11091828 (Journal of medicinal chemistry, 2023).
# Amino acid sequences for entries named in this document (tags omitted).
# UniProt P42866, whole entry: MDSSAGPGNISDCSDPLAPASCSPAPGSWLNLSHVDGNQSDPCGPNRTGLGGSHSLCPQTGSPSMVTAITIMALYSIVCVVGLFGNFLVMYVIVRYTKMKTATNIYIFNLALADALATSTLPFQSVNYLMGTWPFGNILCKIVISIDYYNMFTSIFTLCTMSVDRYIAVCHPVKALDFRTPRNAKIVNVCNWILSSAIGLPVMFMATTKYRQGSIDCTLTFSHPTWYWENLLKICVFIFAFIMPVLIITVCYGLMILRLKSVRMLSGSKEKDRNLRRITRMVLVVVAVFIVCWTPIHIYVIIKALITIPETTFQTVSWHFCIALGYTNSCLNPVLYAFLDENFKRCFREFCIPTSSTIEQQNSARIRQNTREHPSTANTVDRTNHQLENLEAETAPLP
# Target: mMOR (Mus musculus, UniProt P42866)
# Experiment: BRET Nb33 recruitment at MOR, HEK 293T cells
# Assay type: cell-based
# Settings: NA = No Activity at the highest tested concentration
smiles,measurement,value
"COc1ccsc1CNCC[C@@]1(c2ccccn2)CCOC2(CCCC2)C1 [compound 3, TRV130, reference compound]",MOR Nb33 recruitment pEC50 ± SEM,7.23 ± 0.08
